# Shown are actives, neighbours in structure and some others; about 2.8% of the full set was active somewhere.
# UUG fidelity: yeast start codon fidelity modulation | S. cerevisiae UUG-firefly luciferase reporter, luminescence/redox ratio | activity score, % at 18.7 µM | 0.13% of 350,000 active | AID 602363;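 active means replicate mean at a twofold rise or more, about +100% in these data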;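 further: firefly luciferase made from a UUG start codon reports start codon fidelity; reporter light over untreated wells divided by growth signal over untreated wells; some hits fall short of that in this replicate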
# PglD inh: PglD (C. jejuni) enzyme inhibition; purified PglD enzyme, DTNB colorimetric CoA detection; inhibition, % at 12.5 µM; actives 0.098% (n = 360,000); AID 602405; in the data active means inhibition above about 16%, passing the limit was not always enough
# esBAF inh: blocks esBAF chromatin remodeling in mouse ES cells. Bmi1-luciferase knock-in reporter, 24 h; 100% = twice the neutral-well signal. reporter increase, % at 12.5 µM. actives 2% (n = 350,000). AID 602393; in the data active means activation above about 40%;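 further: 0% = median of the plate's neutral control wells and 100% = double that signal; a rise in the Bmi1 reporter signal indicates esBAF inhibition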
# PGC1a acetyl inh: modulators of PGC1a acetylation | AID 651687 | inhibition, % at 15.6 µM | actives 0.17% (n = 350,000) | U2OS PGC1a acetylation, AlphaScreen anti-acetyl-lysine; with virally co-expressed GCN5 acetyltransferase;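 active means every replicate shows inhibition of at least 40%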;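 further: 0% = neutral control wells and 100% = positive control wells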
# Statin myotox sup: protects C2C12 myotubes from simvastatin toxicity; AID 602340; actives 0.78% (n = 330,000); rescue of ATP level, % at 7.49 µM; ATP luminescence, 48 h; scaled: DMSO 0, geranylgeraniol control 100;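 active means mean ATP rescue above about 67%, or every replicate alone reaching that limit, limit read from the data, passing the limit was not always enough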;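 further: myotubes were challenged with 10 µM simvastatin during compound exposure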
# E-selectin induc: induces E-selectin expression in human endothelial cells; HUVEC E-selectin immunofluorescence imaging; normalized: neutral wells 0, TNF-alpha wells 100; activation, % at 7.58 µM; actives 0.37% (n = 260,000); AID 686992;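 active means mean E-selectin-positive cell signal at least 10% of the positive control, reached in at least 60% of replicates, without over 20% cell loss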
#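 Test system – human umbilical vein endothelial cells (HUVEC), E-selectin induction · Input – 3,000 HUVEC seeded per well · Buffer or medium – EGM-2, gelatin · Compound dosing – single-point compound dose · Detection – immunofluorescence imaging · Measure – percent E-selectin-positive cells · Controls – TNF-alpha high, DMSO low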
# An asterisk follows results filed as active; . = no result given; ! = not confirmed by another sample.
[1] NNCc1ccccc1
[2] Cc1cccc(NP(C)(=O)c2nc3c(s2)CCCC3)c1 (stereo unspecified)
[3] Cc1ccc(OP(=O)(Nc2cccc(C)c2)Oc2ccc(C)cc2)cc1
[4] COC(=O)[C@@H]1[C@@H](CO)[C@@H]2Cn3c(cccc3=O)[C@H]1N2C(=O)C1CCCC1
[5] CCCCCn1c(=O)c(C(=O)Nc2ccccc2C)c(O)c2ccccc21
[6] CCCCCn1c(=O)c(C(=O)Nc2ccccc2S(N)(=O)=O)c(O)c2ccccc21
[7] COC(=O)[C@@H]1[C@@H](CO)[C@@H]2Cn3c(ccc(-c4cncnc4)c3=O)[C@H]1N2S(=O)(=O)c1ccccc1C
[8] NC(C(=O)O)c1cc(=O)[nH]o1 (stereo unspecified)
[9] C/C=C/c1ccc(C2[C@@H]3CN(C(=O)CN(C)C)C[C@H]2N3)cc1 (stereo partly specified)
[10] CC(=O)OC1CC2OC3C=C(C)CCC3(C)C1(C)C21CO1 (stereo unspecified)
screen / no.	1	2	3	4	5	6	7	8	9	10
UUG fidelity	-15.9	-15.8	-11.0	10.8	-16.1	.	.	-18.9	.	48.7
PglD inh	-2.3	1.3	4.8	-2.3	3.7	.	3.5	-3.0	.	-1.2
esBAF inh	49.1*!	25.1	-3.2	-6.8	51.5*	.	0.7	7.1	.	-55.0
PGC1a acetyl inh	-5.9	11.7	-12.9	.	.	14.6	.	-13.2	7.7	87.2*
Statin myotox sup	8.9	142.7*	17.0	1.9	-11.7	.	8.8	16.3	.	209.6*
E-selectin induc	0.0	.	0.2	0.0	.	-1.5	0.0	84.2*	0.3	.

[11] CC(=O)O[C@H]1C[C@@H]2OC3C=C(C)CCC3(C)[C@@]1(C)[C@@]21CO1 (stereo partly specified)
[12] C[C@H]1[C@@H](OS(=O)(=O)O)C[C@@H]2C[C@H]([C@@H](O)c3cc(=O)[nH]c(=O)[nH]3)NC3=NC[C@H]1N32
[13] Cc1ccc(CS(=O)(=O)CCC(=O)N2CCC3(CC2)OCCO3)cc1
[14] COc1ccccc1CCNC(=O)CCC(=O)N1CC2C[C@@H](C1)Cn1c2cccc1=O
[15] COc1cccc(CNC(=O)CCC(=O)N2C[C@H]3C[C@H](C2)c2cccc(=O)n2C3)c1OC
[16] CN1CCN(c2nccc3c2ncn3C)CC1
[17] COc1ccc(CC2C(=O)NC(C)C(=O)N(C)C3C(=O)N(C)C(Cc4ccc(O)c(c4)Oc4ccc(cc4)C3O)C(=O)NC(C)C(=O)NC(C)C(=O)N2C)cc1 (stereo unspecified)
[18] O=C1CNC[C@H]2[C@@H](c3ccc(Br)cc3)[C@@H](CO)N12
[19] CCCN1[C@@H]2c3ccc(-c4ccc(F)cc4)c(=O)n3C[C@H]1[C@H](CO)[C@H]2C(=O)OC
[20] O=C1NC(=S)N(c2ccc(Cl)cc2)C(=O)/C1=C/N1CCN(C(=O)c2ccco2)CC1
screen / no.	11	12	13	14	15	16	17	18	19	20
UUG fidelity	.	-10.9	-11.6	-9.3	2.9	-12.1	.	.	.	.
PglD inh	.	3.6	5.9	0.9	-6.6	-1.5	.	.	0.4	.
esBAF inh	.	-27.7	-4.4	46.5*	0.6	3.1	.	.	-3.2	-0.4
PGC1a acetyl inh	83.8*	93.5*	44.2*	-2.4	14.7	-2.6	76.1*	-0.5	-5.1	-1.5
Statin myotox sup	.	62.2	-22.5	-4.7	0.5	101.4*	.	.	-3.2	77.4*
E-selectin induc	.	.	.	.	.	.	-0.3	.	-0.4	.

[21] O=C1NC(=S)N(c2ccc(F)cc2)C(=O)/C1=C\c1ccoc1
[22] Cc1ccc(-n2c(=S)[nH]c3ccccc3c2=O)cc1F
[23] CN1C(=O)C(=Cc2coc3ccccc3c2=O)C(=O)N(C)C1=O
[24] CCC(=Nc1ccc2c(c1)CCC2)c1c(O)n(C)c(=O)n(C)c1=O
[25] O=C(Cc1ccncc1)N1CCCCN2[C@@H](CO)[C@@H](c3ccc(C#Cc4ccccc4F)cc3)[C@@H]2C1
[26] C=CCNC(=S)Nc1ccc(OC(=O)Nc2ccc(Cl)c(Cl)c2)cc1
[27] O=C(Nc1ccc(Cl)c(Cl)c1)c1ccco1
[28] O=C1/C(=C\c2ccccc2)C2OCC=C3CN4CCC56c7ccccc7N1C5C2C3CC46 (stereo unspecified)
[29] O=C(O)[C@@H]1[C@@H](CO)[C@@H]2Cn3c(cccc3=O)[C@H]1N2C(=O)c1ccccc1
[30] C#CCNc1ccncc1S(=O)(=O)NC(=O)NC(C)C
screen / no.	21	22	23	24	25	26	27	28	29	30
UUG fidelity	-21.7	-5.0	.	-17.7	-8.1	0.5	-17.9	5.5	.	-5.6
PglD inh	-4.8	4.1	.	-0.4	-1.6	3.4	3.1	0.1	-0.1	7.0
esBAF inh	-7.7	61.4*	-4.3	9.4	8.0	-1.1	59.9*	6.2	-0.4	0.4
PGC1a acetyl inh	1.3	-3.8	-0.1	-7.4	1.2	2.1	-4.8	-6.3	.	-3.5
Statin myotox sup	-2.5	-10.9	-7.2	111.8*	-27.1	-12.0	1.9	137.5*	13.7	128.3*
E-selectin induc	.	-0.1	36.3*	.	0.9	1.0	0.0	.	-1.2	.

[31] O=C(Cc1cccnc1)N1CCCCN2[C@H](CO)[C@@H](c3ccc(/C=C/c4ccccc4)cc3)[C@@H]2C1
[32] N#Cc1cn(C2OC(CO)C(O)C2O)c2ncnc(N)c12 (stereo unspecified)
[33] NC(=O)c1cn(C2OC(CO)C(O)C2O)c2ncnc(N)c12 (stereo unspecified)
[34] C/C(=N\N1CCCCCC1)c1c(O)n(-c2ccc(Cl)cc2)c(=O)[nH]c1=O
[35] CCC(=NCCO)c1c(O)n(-c2ccc(Cl)cc2)c(=O)[nH]c1=O
[36] COc1ccc(C#Cc2ccc([C@H]3[C@H]4CN(C(=O)Cc5ccccc5)CCCCN4[C@H]3CO)cc2)cc1
[37] C=CCn1c(O)c(C(C)=NCCCN(C)C)c(=O)[nH]c1=O
[38] CCn1c(C)c(C(=O)Nc2ccc(OC)cc2)c2cc(OC)ccc21
[39] CC(C)N(C(=O)CCl)c1ccccc1
[40] C[C@@H]([C@@H](O)c1ccccc1)N(C)C(=O)Cc1ccccc1
screen / no.	31	32	33	34	35	36	37	38	39	40
UUG fidelity	-16.9	.	-3.8	-5.9	-10.9	18.2	.	-0.6	-9.8	-0.6
PglD inh	4.4	.	-6.9	4.7	6.2	-0.7	.	-4.1	-2.3	-5.6
esBAF inh	.	.	-24.9	11.9	1.2	12.0	.	50.9*	-7.6	-10.3
PGC1a acetyl inh	-1.5	-4.9	92.6*!	.	7.0	-1.9	.	5.5	0.8	6.1
Statin myotox sup	.	.	-172.8	4.5	114.3*	-13.4	.	-42.5	-11.7	3.6
E-selectin induc	-0.6	-0.4	-1.8	.	.	-0.6	49.9*	0.2	83.2*	0.6

# Some entries already given, reduced to PGC1a acetyl inh, E-selectin induc and esBAF inh.
item | molecule | PGC1a acetyl inh | E-selectin induc | esBAF inh
33 | NC(=O)c1cn(C2OC(CO)C(O)C2O)c2ncnc(N)c12 (stereo unspecified) | 92.6*! | -1.8 | -24.9
36 | COc1ccc(C#Cc2ccc([C@H]3[C@H]4CN(C(=O)Cc5ccccc5)CCCCN4[C@H]3CO)cc2)cc1 | -1.9 | -0.6 | 12.0
39 | CC(C)N(C(=O)CCl)c1ccccc1 | 0.8 | 83.2* | -7.6
35 | CCC(=NCCO)c1c(O)n(-c2ccc(Cl)cc2)c(=O)[nH]c1=O | 7.0 | . | 1.2

# (next part)
[41] COC(=O)[C@H]1[C@H](CO)[C@H]2Cn3c(ccc(C4=CCCCC4)c3=O)[C@@H]1N2CC1CC1
[42] COC(=O)[C@H]1[C@H](CO)[C@H]2Cn3c(ccc(/C=C/c4ccccc4)c3=O)[C@@H]1N2C(=O)C1CC1
[43] Cc1nn(Cc2ccccc2)c(Cl)c1C(=O)Nc1ccc(OC(F)(F)F)cc1
[44] Cc1ccc(Cn2nc(C(=O)Nc3ccc(Br)cc3)cc2C)cc1
[45] O=C(O)[C@H]1[C@H](CO)[C@H]2Cn3c(ccc(-c4ccccc4)c3=O)[C@@H]1N2C(=O)C1CCCCC1
[46] CCOC(=O)C(O)(c1ccc(NC(=O)NC2CCCCC2)cc1)C(F)(F)F (stereo unspecified)
screen / no.	41	42	43	44	45	46
UUG fidelity	.	.	.	-16.1	.	-11.2
PglD inh	4.3	-1.5	.	1.1	-1.1	-3.5
esBAF inh	-1.4	0.7	.	59.4*	2.2	45.6*
PGC1a acetyl inh	.	.	.	-15.1	2.2	2.1
Statin myotox sup	-15.3	6.0	.	12.0	-4.6	-39.9
E-selectin induc	-0.1	0.3	-0.3	-0.4	0.0	.

# Bioassay records deposited in PubChem by Broad Institute.
